{"source": "patent US20130225543A1", "about": "“SPECIFIC REGULATION OF CYTOKINE LEVELS BY HDAC6 INHIBITORS” (Acetylon Pharmaceuticals, priority 2010, published 2013)", "biological_target": "T1, HDAC6 (Homo sapiens, UniProt Q9UBN7)", "T1 construct": "purchased BPS Biosciencies (San Diego, Calif.)", "T1 sequence (Q9UBN7 1-1215)": "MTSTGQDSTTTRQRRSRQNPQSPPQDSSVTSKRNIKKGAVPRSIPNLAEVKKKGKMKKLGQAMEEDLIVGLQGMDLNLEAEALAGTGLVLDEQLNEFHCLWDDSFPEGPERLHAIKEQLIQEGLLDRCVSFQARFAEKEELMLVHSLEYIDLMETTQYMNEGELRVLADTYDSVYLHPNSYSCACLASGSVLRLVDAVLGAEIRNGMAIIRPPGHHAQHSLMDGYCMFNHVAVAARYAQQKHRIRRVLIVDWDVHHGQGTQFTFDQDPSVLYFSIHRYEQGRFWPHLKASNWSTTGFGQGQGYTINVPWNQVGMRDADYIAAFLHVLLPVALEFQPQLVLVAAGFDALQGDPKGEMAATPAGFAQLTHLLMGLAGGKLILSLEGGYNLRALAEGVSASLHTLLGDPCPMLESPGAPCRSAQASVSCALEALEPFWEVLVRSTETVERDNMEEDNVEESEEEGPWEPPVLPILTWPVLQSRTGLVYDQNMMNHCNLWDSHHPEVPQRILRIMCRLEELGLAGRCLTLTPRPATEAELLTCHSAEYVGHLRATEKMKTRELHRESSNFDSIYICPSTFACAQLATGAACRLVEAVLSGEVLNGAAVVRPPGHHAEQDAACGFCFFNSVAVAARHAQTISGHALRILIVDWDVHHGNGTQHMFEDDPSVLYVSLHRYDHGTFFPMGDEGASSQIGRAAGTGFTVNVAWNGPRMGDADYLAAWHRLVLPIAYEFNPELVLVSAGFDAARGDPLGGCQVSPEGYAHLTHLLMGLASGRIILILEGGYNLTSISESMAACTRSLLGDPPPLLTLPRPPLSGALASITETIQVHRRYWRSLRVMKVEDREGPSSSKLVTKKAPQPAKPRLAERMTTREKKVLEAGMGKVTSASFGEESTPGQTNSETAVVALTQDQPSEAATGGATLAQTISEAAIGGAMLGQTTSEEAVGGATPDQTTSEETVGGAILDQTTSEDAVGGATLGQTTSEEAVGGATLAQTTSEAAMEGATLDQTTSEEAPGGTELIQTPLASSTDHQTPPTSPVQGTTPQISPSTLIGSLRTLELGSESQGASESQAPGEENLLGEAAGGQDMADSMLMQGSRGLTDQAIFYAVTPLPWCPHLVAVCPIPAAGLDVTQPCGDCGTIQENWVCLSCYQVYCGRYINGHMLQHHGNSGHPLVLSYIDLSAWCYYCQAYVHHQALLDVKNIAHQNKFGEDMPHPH", "test": "Kinetic HDAC enzyme inhibition assay, HDAC6", "format": "biochemical", "data": [{"smiles": "CC(/C=C/C(=O)NO)=C\\[C@@H](C)C(=O)c1ccc(N(C)C)cc1", "note": "[Trichostatin A]", "values": [{"measurement": "Selectivity for HDAC6 versus HDAC3", "result": "non selective"}]}]}
